Values quoted from earlier work as cited in paper PMC10175687, “Population pharmacokinetic analysis and dosing regimen optimization of teicoplanin in critically ill patients with sepsis” (Frontiers in Pharmacology, 2023).

Conditions: previously published PPK model; ref Wi et al., 2017; cited from earlier work
Excerpt: This difference was expected, since factors such as endothelial damage, increased capillary permeability, compounded by a large amount o ...

teicoplanin
V1: 15.7 L
V2: 71.7 L
typical value of CL: 0.95 L/h
